Assay results from PubChem BioAssay AID652104 (National Center for Advancing Translational Sciences (NCATS), 2013).
This is a selection; strong and weak results do not stand in their true shares. Records with an inconclusive call do not appear. Some salts or complexes appear as unconnected parts, following the source record. Active and inactive are the calls of the source. The call rests on the fitted dose curve; in most records, active means well fitted activation curve with a large enough effect; inconclusive means small, poorly fitted or top-dose-only effect, or another doubt; inactive means no such curve, though single readings can be large or run the other way.

experiment: qHTS of TDP-43 Inhibitors; conditions: TDP-43 expressing yeast growth rescue, BacTiter-Glo, 24 h; at 46.1 µM (top of the series) unless noted; further: % of control where 0% means no effect; nearly all actives have a fitted effect of over 50% in size

Row | Compound | growth rescue (activation)
1 | COc1cc(OC)c(C(=O)NCC2(N(C)C)CCCCC2)cc1OC | inactive: -3.29%
2 | O=C(NCC1(N2CCOCC2)CCCCC1)c1cc(F)c(F)cc1Cl | inactive: 11.4%
3 | CCC(c1nnnn1C(C)(C)C)N1CCC(n2c(=O)[nH]c3ccccc32)CC1 (centres undefined) | inactive: -0.318%
4 | CCCCn1nnnc1C(c1ccnc2ccccc12)N1CCC(n2c(=O)[nH]c3ccccc32)CC1 (centres undefined) | inactive: 12.4%
5 | O=C(OC1CN2CCC1CC2)c1ccc([N+](=O)[O-])cc1 (centres undefined) | inactive: -6.85%
6 | CN1CCC(Nc2cccc(F)c2)CC1 | inactive: 4.81%
7 | COc1ccc2c(c1O)-c1c(O)c(OC)cc3c1[C@H](C2)[N+](C)(C)CC3.O=[N+]([O-])c1cc([N+](=O)[O-])c([O-])c([N+](=O)[O-])c1[O-] | inactive: 21.9%
8 | O=C(NCC1(N2CCCCC2)CCCCC1)c1cncc(Br)c1 | inactive: -17.7%
9 | O=[N+]([O-])c1cc([N+](=O)[O-])c(Nc2ccc(Cl)cc2)c([N+](=O)[O-])c1 | inactive: -90.5%
10 | COc1ccc(C(c2nnnn2C2CCCC2)N2CCC(n3c(=O)[nH]c4ccccc43)CC2)cc1 (centres undefined) | inactive: 27.2%
11 | CCCCOc1ccccc1C(=O)NCC1(N2CCOCC2)CCCCC1 | inactive: 5.03%
12 | Cc1ccc(C(=O)NCC2(N(C)C)CCCCC2)o1 | inactive: 12.5%
13 | O=C(NCC1(N2CCOCC2)CCCCC1)c1ccccc1Br | inactive: 11.1%
14 | CCCOc1ccc(C(=O)NCC2(N(C)C)CCCCC2)cc1OC | inactive: -4.22%
15 | O=C(NCC1(N2CCCCC2)CCCCC1)c1ccc(OC(F)F)cc1 | inactive: 24.2%
16 | CCN1CCC(Nc2ccc(Cl)cc2)CC1 | inactive: 15.7%
17 | O=c1[nH]c2ccccc2n1C1CCN(C(c2ccccc2OC(F)(F)F)c2nnnn2C2CCCC2)CC1 (centres undefined) | inactive: -5.79%
18 | N#CC1(Nc2ccccc2)CCN(CCc2ccccc2)CC1 | inactive: -8.79%
19 | CSc1ccc(C(=O)NCC2(N3CCOCC3)CCCCC2)cc1 | inactive: 5.54%
20 | O=C(NCC1(N2CCCCC2)CCCCC1)c1cccc([N+](=O)[O-])c1 | inactive: 18.1%
21 | CCOc1ccc(C(=O)NCC2(N3CCOCC3)CCCCC2)cc1 | inactive: 14%
22 | O=[N+]([O-])c1cc([N+](=O)[O-])c(NCC2CCS(=O)(=O)C2)c([N+](=O)[O-])c1 (centres undefined) | inactive: 12.3%

Row | Compound | growth rescue (activation)
23 | CCCOc1cccc(C(=O)NCC2(N3CCOCC3)CCCCC2)c1 | inactive: 2.71%
24 | O=C(NCC1(N2CCCCC2)CCCCC1)c1cccc(C(F)(F)F)c1 | inactive: -15.2%
25 | COc1cc(C(=O)NCC2(N3CCCCC3)CCCCC2)ccc1OC(F)F | inactive: 14.2%
26 | O=C(NCC1(N2CCOCC2)CCCCC1)c1cc(=O)[nH]c2ccccc12 | inactive: -3.41%
27 | CN1CCN(CCOC(=O)C(O)(c2ccccc2)c2ccccc2)CC1 | inactive: -18.6%
28 | CC(C)c1ccc(C(=O)NCC2(N3CCOCC3)CCCCC2)cc1 | inactive: 3.77%
29 | COc1ccc(NC2CCN(C(=O)OC(C)(C)C)CC2)cc1 | inactive: -3.33%
30 | CC(C)(C)n1nnnc1C(c1ccccc1)N1CCC(n2c(=O)[nH]c3ccccc32)CC1 (centres undefined) | inactive: 20.8%
31 | O=C(NCC1(N2CCOCC2)CCCCC1)c1ccc(Cl)cc1 | inactive: -9.98%
32 | O=C1CCN(Cc2ccccc2)CC1 | inactive: -5.86%
33 | CCOc1ccc(C)cc1CN(CCCl)CCCl | inactive: -7.41%
34 | COc1ccccc1C(=O)NCC1(N2CCOCC2)CCCCC1 | inactive: 9.15%
35 | O=P1(N(CCCl)CCCl)SCCCS1 | inactive: -8.48%
36 | CCCCOc1ccc(C(=O)NCC2(N3CCOCC3)CCCCC2)cc1 | inactive: 11.3%
37 | O=C(NCC1(N2CCCCC2)CCCCC1)c1ccc(F)cc1 | inactive: -9.33%
38 | COc1ccc(NC2CCN(CCc3ccccc3)CC2)c(OC)c1 | inactive: -11.1%
39 | CCOC(=O)N1CCC(Nc2ccc(F)cc2)CC1 | inactive: 16.8%
40 | O=c1[nH]c2ccccc2n1C1CCN(C(c2ccccc2)c2nnnn2C2CCCCC2)CC1 (centres undefined) | inactive: 0%
41 | CCOC(=O)N1CCC(Nc2cccc(C)c2)CC1 | inactive: 16.3%
42 | COc1cc(C(=O)NCC2(N(C)C)CCCCC2)ccc1OC(F)F | inactive: -21.6%
43 | O=c1[nH]c2ccccc2n1C1CCN(C(c2cccc3ccccc23)c2nnnn2C2CCCC2)CC1 (centres undefined) | inactive: 6.03%
44 | COc1ccc(C(=O)NCC2(N3CCCCC3)CCCCC2)cc1 | inactive: 1.62%

Row | Compound | growth rescue (activation)
45 | CC(C)(C)OC(=O)N1CCC(N(C(=O)c2ccccc2)c2ccc(F)cc2)CC1 | inactive: 14.1%
46 | COc1ccc(C(=O)NCC2(N3CCCCC3)CCCCC2)c(OC)c1OC | inactive: -20.4% [at 0.397 µM]
47 | CCC(c1nnnn1C1CCCC1)N1CCC(n2c(=O)[nH]c3ccccc32)CC1 (centres undefined) | inactive: 0%
48 | O=C(NCC1(N2CCCCC2)CCCCC1)c1ccc(=O)[nH]c1 | inactive: 9.07%
49 | O=C(NCC1(N2CCCCC2)CCCCC1)c1cccs1 | inactive: 8.23%
50 | CCCCn1nnnc1C(c1cccs1)N1CCC(n2c(=O)[nH]c3ccccc32)CC1 (centres undefined) | inactive: 14.3%
51 | CSc1ccccc1C(=O)NCC1(N2CCCCC2)CCCCC1 | inactive: -7.98%
52 | Cc1cccc(NC2(C#N)CCN(Cc3ccccc3)CC2)c1 | inactive: 21.3%
53 | O=C(NCC1(N2CCCCC2)CCCCC1)c1ccc(Cl)nc1 | inactive: 5.77%
54 | O=c1[nH]c2ccccc2n1C1CCN(C(c2ccccc2OC(F)(F)F)c2nnnn2C2CCCCC2)CC1 (centres undefined) | inactive: 24.1%
55 | Cc1cc(C)cc(N(C(=O)c2ccccc2)C2CCN(C(=O)OC(C)(C)C)CC2)c1 | inactive: -11.7%
56 | O=C(NCC1(N2CCOCC2)CCCCC1)c1cc2ccccc2o1 | inactive: 15%
57 | N#CC1(Nc2ccccc2)CCN(Cc2ccccc2)CC1 | inactive: -4.3%
58 | O=C(NCC1(N2CCCCC2)CCCCC1)c1ccc(Cl)s1 | inactive: 14.7%
59 | O=C(OC1CN2CCC1CC2)C1c2ccccc2Oc2ccccc21 (centres undefined) | inactive: 25.9%
60 | O=c1[nH]c2ccccc2n1C1CCN(C(c2cc3ccccc3o2)c2nnnn2C2CCCCC2)CC1 (centres undefined) | inactive: 0%
61 | COc1ccc(Cl)cc1C(=O)NCC1(N2CCOCC2)CCCCC1 | inactive: -0.311%
62 | O=C1C(O)=C([N+](=O)[O-])C(=O)C(O)=C1[N+](=O)[O-] | inactive: -24.2%
63 | CCOC(=O)N1CCC(Nc2ccc(OC)cc2)CC1 | inactive: -3.55%
64 | CCCCn1nnnc1C(c1ccc(OC)cc1)N1CCC(n2c(=O)[nH]c3ccccc32)CC1 (centres undefined) | inactive: 6.2%
